Each structure is given as a SMILES string.

By UniProt entry, the sequences of proteins in these tests, tags left out.
UniProt P28482, whole entry: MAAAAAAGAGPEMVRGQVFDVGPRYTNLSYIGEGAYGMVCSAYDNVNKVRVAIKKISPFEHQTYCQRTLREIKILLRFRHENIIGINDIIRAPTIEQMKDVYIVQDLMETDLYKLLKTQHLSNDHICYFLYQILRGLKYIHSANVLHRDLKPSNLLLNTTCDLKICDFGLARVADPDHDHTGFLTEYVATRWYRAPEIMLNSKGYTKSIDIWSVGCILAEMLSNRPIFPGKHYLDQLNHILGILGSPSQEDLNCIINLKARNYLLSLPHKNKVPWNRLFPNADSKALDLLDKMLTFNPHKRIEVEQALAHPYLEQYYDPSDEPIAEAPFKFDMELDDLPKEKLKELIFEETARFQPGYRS

IC50 data for ten compounds are collected here from US9242996B2 (Novartis AG, priority 2013, dated 2016).

What all share (type): biochemical
The target of experiment [1] is T1, activated ERK2 (Homo sapiens (Human), UniProt P28482). In words: Activated ERK2 (20 pM) Kinase Assay (AlphaScreen, ERKtide phosphorylation). The conditions noted are these: 0.02 nM ERK2, 400 nM ERKtide peptide, 35 μM ATP, 30 min preincubation. How it is done:
Activated ERK2 (20 pM) Kinase Assay:
Compound potency against activated ERK2 was determined using a kinase assay that measures ERK2-catalyzed phosphorylation of biotinylated ERKtide peptide substrate ([Biotin]-AH[…]-[NH2], the peptide sequence derived from EGF receptor: SEQ ID NO:1). The assay was carried out in 20 mM HEPES [pH 7.5], 5 mM MgCl2, 1 mM DTT, 0.01% Tween-20, 0.05% BSA using 0.02 nM ERK2, 400 nM ERKtide peptide and 35 μM ATP (all concentrations are final in the reaction) in a total volume of 10.25 μL. […] Compound dilution series were prepared in 100% DMSO. ERK2 was preincubated with compounds for 30 minutes at ambient temperature. Reaction was initiated by addition of a substrate cocktail of ERKtide peptide and ATP and was allowed to proceed for 4 hours at ambient temperature. Reaction was terminated by addition of 10 μL of a 2× stop buffer consisting of 100 mM Tris-Cl [pH 7.5], 25 mM EDTA, 0.01% Tween 20, 20 μg/mL of AlphaScreen Protein A Acceptor Beads, 20 μg/mL of Streptavidin Donor Beads (PerkinElmer, Waltham, Mass.), and 1:1000 dilution phospho-EGF Receptor (Thr669) antibody (Cat #8808, Cell Signaling Technology, Danvers, Mass.). Terminated reactions were read, after overnight incubation in the dark, on an EnVision Multilabel Plate Reader (PerkinElmer, Waltham, Mass.), with excitation and emission wavelengths set to 680 nm and 570 nm, respectively. IC50 values were determined using a four-parameter fit.

The next experiment has as its target ERK2 (Homo sapiens (Human), UniProt P28482). Kind of experiment: ERK2 Alphascreen. Background: In Alpha technology, singlet oxygen from a donor bead excites a nearby acceptor bead.
Experiment [2] deals with T1, activated ERK2. Kind of experiment: Activated ERK2 kinase assay, ERK2 New conditions (AlphaScreen, ERKtide phosphorylation). To be noted: 0.25 nM ERK2, 200 nM ERKtide peptide, 35 μM ATP, 30 min preincubation. The method, then:
The following assay conditions (ERK2 New) were used for some compounds in the following Table, and provide substantially similarIC50s to the assay described above, for IC50 about 0.1 μM or above. […]
Compound potency against activated ERK2 is determined using a kinase assay that measures ERK2-catalyzed phosphorylation of biotinylated ERKtide peptide substrate ([Biotin]-AH[…]-[NH2], the peptide sequence derived from EGF receptor: SEQ ID NO:1). The assay is carried out in 50 mM HEPES [pH 7.5], 5 mM MgCl2, 1 mM DTT, 0.01% Tween-20, 0.05% BSA using 0.25 nM ERK2, 200 nM ERKtide peptide and 35 μM ATP (all concentrations are final in the reaction) in a total volume of 10.25 μL. […] Compound dilution series are prepared in 100% DMSO. ERK2 is preincubated with compounds for 30 minutes at ambient temperature. Reaction is initiated by addition of a substrate cocktail of ERKtide peptide and ATP and is allowed to proceed for 2-3 hours at ambient temperature. Reaction is terminated by addition of 10 μL of a 2× stop buffer consisting of 100 mM Tris-Cl [pH 7.5], 25 mM EDTA, 0.01% Tween 20, 10 μg/mL of AlphaScreen Protein A Acceptor Beads, 10 μg/mL of Streptavidin Donor Beads (PerkinElmer, Waltham, Mass.), and 1.4 μg/mL phospho-EGF Receptor (Thr669) antibody (Cat #3056, Cell Signaling Technology, Danvers, Mass.). Terminated reactions are read, after overnight incubation in the dark, on an EnVision Multilabel Plate Reader (PerkinElmer, Waltham, Mass.), with excitation and emission wavelengths set to 680 nm and 570 nm, respectively. IC50 values are determined using a four-parameter fit.

Usually IC50 stands for the concentration that gives 50% inhibition. The low end stands for higher potency, the high end for lower potency. Take `Nc1ncc(C2CCOCC2)cc1-c1ccc(C(=O)N[C@H](CO)c2ccccc2)c(Cl)c1` [Example 73, (S)-4-(2-amino-5-(tetrahydro-2H-pyran-4-yl)pyridin-3-yl)-2-chloro-N-(2-hydroxy-1-phenylethyl)benzamide]: the concentration for half-maximal inhibition (IC50) on activated ERK2 [1] worked out at 1.29 nM; against ERK2, 3.08 nM.

As for `Nc1ncc(C2CCOCC2)cc1-c1ccc(C(=O)N[C@H](CO)c2ccccc2)c(C(F)(F)F)c1` [Example 74, (S)-4-(2-amino-5-(tetrahydro-2H-pyran-4-yl)pyridin-3-yl)-N-(2-hydroxy-1-phenylethyl)-2-(trifluoromethyl)benzamide], the IC50 against activated ERK2 [1] was 20.3 nM; against ERK2, 37.6 nM.

Regarding `Nc1ncc(C2CCS(=O)(=O)CC2)cc1-c1ccc(C(=O)N[C@H](CO)c2ccccc2)c(F)c1` [Example 79, (S)-4-(2-amino-5-(1,1-dioxidotetrahydro-2H-thiopyran-4-yl)pyridin-3-yl)-2-fluoro-N-(2-hydroxy-1-phenylethyl)benzamide], the IC50 amounted to 33.3 nM on ERK2 and 32.4 nM at activated ERK2 [2].

As to `Nc1ncc(-c2ccncc2)cc1-c1ccc(C(=O)N[C@H](CO)c2ccccc2)c(F)c1` [Example 81, (S)-4-(6-amino-[3,4′-bipyridin]-5-yl)-2-fluoro-N-(2-hydroxy-1-phenylethyl)benzamide], the IC50 on activated ERK2 [1] was determined as 0.163 nM; on ERK2, 0.166 nM; at activated ERK2 [2], 0.487 nM.

On to `C[C@@H]1CN(c2cnc(N)c(-c3ccc(C(=O)N[C@H](CO)c4ccccc4)c(F)c3)c2)C[C@H](C)O1` [Example 96, 4-(2-amino-5-((2S,6R)-2,6-dimethylmorpholino)pyridin-3-yl)-2-fluoro-N-((S)-2-hydroxy-1-phenylethyl)benzamide], for which the IC50 stood at 84.6 nM at activated ERK2 [1] and 91.3 nM against ERK2.

`Nc1ncc(-c2ccncc2)nc1-c1ccc(C(=O)N[C@H](CO)c2ccccc2)c(F)c1` [Example 142, (S)-4-(3-amino-6-(pyridin-4-yl)pyrazin-2-yl)-2-fluoro-N-(2-hydroxy-1-phenylethyl)benzamide]: the IC50 is 0.21 nM against activated ERK2 [1] and 0.201 nM at ERK2.

As for `Nc1ncc(C2CCOCC2)nc1-c1ccc(C(=O)N[C@H]2C[C@@H]2c2ccccc2)c(F)c1` [Example 200, 4-(3-amino-6-(tetrahydro-2H-pyran-4-yl)pyrazin-2-yl)-2-fluoro-N-((1S,2R)-2-phenylcyclopropyl)benzamide], the IC50 against activated ERK2 [1] was 0.0842 nM; against ERK2, 0.183 nM; against activated ERK2 [2] it was 0.207 nM.

With `Nc1ncc(C2CCOCC2)nc1-c1ccc(C(=O)NCCc2ccccc2)c(F)c1` [Example 328, 4-(3-amino-6-(tetrahydro-2H-pyran-4-yl)pyrazin-2-yl)-2-fluoro-N-phenethyl-benzamide], the IC50 on ERK2 came to 7.64 nM; against activated ERK2 [2], 8.29 nM.

`Nc1ncc(C2CCOCC2)nc1-c1ccc(C(=O)N[C@H](CO)c2cccc(Cl)c2)c(F)c1` [Example 438, (S)-4-(3-amino-6-(tetrahydro-2H-pyran-4-yl)pyrazin-2-yl)-N-(1-(3-chlorophenyl)-2-hydroxyethyl)-2-fluorobenzamide]: the IC50 came out at 0.0252 nM on activated ERK2 [1], 0.113 nM against ERK2 and 0.0914 nM at activated ERK2 [2].

Turning to `Nc1ncc(C2CCOCC2)cc1-c1ccc2c(c1)CCNC2=O` [Example 439, 6-(2-amino-5-(tetrahydro-2H-pyran-4-yl)pyridin-3-yl)-3,4-dihydroiso-quinolin-1(2H)-one], the IC50 at activated ERK2 [1] was 60.9 nM; on ERK2 it was 98.5 nM.
